Antibody variant affinities, Ab-91 heavy chain, assay 2

Binding partner: SARS-CoV-2 spike HR2 peptide, sequence PDVDLGDISGINAS.

The variants keep the light chain, the linker and the frameworks of Ab-91 (scFv order VL, a 15-residue (Gly4Ser)3 linker, VH).
VL: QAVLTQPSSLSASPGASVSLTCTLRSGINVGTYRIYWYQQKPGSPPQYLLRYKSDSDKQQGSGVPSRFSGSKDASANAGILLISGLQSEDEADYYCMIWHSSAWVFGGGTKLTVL
VH: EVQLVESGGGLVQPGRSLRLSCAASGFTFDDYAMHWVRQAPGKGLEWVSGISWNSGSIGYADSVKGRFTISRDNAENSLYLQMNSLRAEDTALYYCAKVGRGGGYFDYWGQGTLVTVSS

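AAYL51 was designed without a model: most single CDR substitutions and a random sample of double and triple ones. The scFvs were displayed on barcoded MATa yeast, the peptide on MATalpha yeast. After mating in shaken culture at 30 °C for 16 h, diploids were selected and their barcode pairs sequenced. Scores were corrected for input abundance and mapped to Kd with protein pairs of known affinity run in the same pool. Mating was done three times.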

The parent's heavy chain CDRs are GFTFDDYAMH, GISWNSGSIGYADSVK, VGRGGGYFDY; each variant's own CDRs replace them letter for letter.
Every variant below is changed at F106 of the VH (sequential numbering).
Values are apparent Kd, the geometric mean of the replicates that gave a signal; lower means stronger binding.
Where no diploid with the target was found in any replicate, the entry reads "no signal": below detection, most likely a poor binder, though not proof of it.
Three control strains display no target. For library AAYL51, 21% of the pairings with them gave a signal, with a median of 34 µM and one signal in twenty below 1.8 µM, so weak values seen in few replicates may be background. For each scFv, signals with the empty controls are counted beside the result.

CDR-H1,CDR-H2,CDR-H3,Kd,replicates with signal,empty controls
GFTFDDYAMH,GIDWNSGSIGYADSVK,VIRGGGYYDY,18 µM,2/3,1/9
GFTFDDYAMH,SISWNSGSIGYADSVK,VGRGGGYKDY,230 µM,1/3,3/9
GFTFTDYAMH,GISWNSGSIGLADSVK,VGRGGGYVDY,no signal,0/3,4/9
GFTFDDYAMH,GISWNQGSIGYADSVK,VGRGEGYYDY,46 µM,3/3,1/9
GFTFDDYAME,GISWNSGSIGYADSVK,MGRGGGYRDY,30 µM,3/3,4/9
GFTFDDYAMH,GISWNSGMIGYADSVK,VGRGGGYADP,no signal,0/3,0/9
GFTFDDYTMH,GLSWNSGSIGYADSVK,VGRGGGYEDY,52 µM,1/3,3/9
GFTFDDYAMH,GISWNSGSIGPADSVK,VGRGGGYTMY,100 µM,2/3,3/9
GFTFDDYAMH,GISWNSGVIGYADSVK,VGRGGGYSDY,no signal,0/3,2/9
GFTFDDCAMH,GISWESGSIGYADSVK,VGRGGGYGDY,150 µM,1/3,0/9
GFTFDDYFMH,GISWNSGHIGYADSVK,VGRGGGYYDY,46 µM,1/3,0/9
GFTFDDYAMH,GISWNSGSIGYADQVK,VGRGCGYNDY,8.2 nM,3/3,8/9
GFTFDDYAMH,GISWNSGSIGYADGVK,VGRGGGNPDY,6.4 nM,3/3,2/9
GFTFDDVAMH,GISWNSGSIGYADSVK,VGRGGFYYDY,240 µM,2/3,4/9
GFTFDDYAMH,GISWNSGSIGYADSVK,VGRGGGYVWY,no signal,0/3,0/9
GFTFDQYAMH,GISWNSGSIGYADSVK,VGRGGGYMDC,140 nM,3/3,2/9
GFTFDDYAMH,GISWNSGSIGYQDSVK,VGIGGGYMDY,3.6 nM,3/3,0/9
GFTFDDYAMH,GISWNSGSIGYADSVK,VSIGGGYPDY,no signal,0/3,0/9
GREFDDYAMH,GISWNSGSIGYADSVK,VGRGGGYGDY,no signal,0/3,1/9
GFTFDDYAMH,GISWNSGSIGYFDSVK,VGRGGGYCDY,4.2 µM,3/3,8/9
GATFDDYAMH,GISWNSGSIGYADSVK,VGYGGGYYDY,no signal,0/3,0/9
GFTFDAYAMH,GISWNSGSIGYADSVK,VGRGFGYQDY,2.4 nM,3/3,0/9
GFTFDDTAMH,GISWNSGSIGYADSVK,VGRGKGYDDY,no signal,0/3,1/9
GFTFDDRAMH,GISWNSGSIGYADSVK,VGTGGGYIDY,no signal,0/3,0/9
GFTFDDYAMS,GISWNSGSIGTADSVK,VGRGGGYNDY,43 µM,3/3,4/9
GFTFDDYAMH,GIQWNSGSIGYADSVK,AGRGGGYKDY,no signal,0/3,1/9
GFTFDDYAMH,GISWNSGSIGYADSVK,VQRGGGYKNY,480 nM,3/3,3/9
GFTFDDYAMH,GISWNSGSIGYADSVG,VGRRGGYGDY,13 µM,2/3,1/9
GFTFDDYAMH,GIPWNSGSIGYADSVK,VGRGGGQMDY,12 µM,2/3,1/9
GFTFDDYAMH,GISWNSGSIGYADSVK,VGRGGGYHDY,no signal,0/3,0/9
GFSFDDYCMH,GISWNSGSIGYADSVK,VGRGGGYSDY,no signal,0/3,1/9
GFWFDDYAMH,GISWNSGSIGYADSVV,VGRGGGYQDY,10 µM,1/3,1/9
GFTFDDYAMH,GISWNSGSCGYADSYK,VGRGGGYKDY,1.2 µM,3/3,3/9
GNTFDDYAMH,GISWNSGSIGYADSVK,VGRGIGYEDY,no signal,0/3,0/9
GFTSDDYAMH,GISWNSGSIGYADSVK,VGRGGGYNDY,no signal,0/3,0/9
GFTFDDYAMH,GNSWNSGSIGCADSVK,VGRGGGYHDY,no signal,0/3,1/9
GFTFDPYAMH,GISWNSGSIGYADSVK,VWRGGGYYDY,no signal,0/3,0/9
GFTFDDYAME,GQSWNSGSIGYADSVK,VGRGGGYLDY,no signal,0/3,0/9
GFTFDDYAMH,GISWNSGSIGYADSVK,VGRGGGYADE,15 µM,1/3,2/9
QFTFDDYAMH,GISWNSGSIGYADSVK,VMRGGGYVDY,91 µM,1/3,0/9
GFTFDDYAMH,GISWNSGSGGYADSVK,VARGGGYHDY,5.6 µM,1/3,1/9
LFTFDDYAMH,GISWNSGSIGYADSVK,VGRGWGYTDY,52 µM,1/3,0/9
GFTFDDYAMH,GPSWNSGSIGYADSHK,VGRGGGYSDY,11 µM,2/3,0/9
GFTFDDYAMH,GISWNSGSIGYADSVK,VGRGGLYNDY,no signal,0/3,2/9
GFTFDDYAMH,GISWGSGSLGYADSVK,VGRGGGYEDY,180 µM,3/3,9/9
GFTFDDYAMH,GISWNSGSIPYADSVK,QGRGGGYWDY,no signal,0/3,0/9
GFTFDDYAMH,GISWNSGSDGYADSVK,VGRGGGNEDY,340 µM,1/3,1/9
GFTFDDYAMH,RASWNSGSIGYADSVK,VGRGGGYIDY,no signal,0/3,1/9
GFTFDDYAMH,GISWNSGSIGYADSVQ,EGRGGGYRDY,45 nM,3/3,6/9
GATFDDYAMH,GIGWNSGSIGYADSVK,VGRGGGYKDY,3.8 µM,1/3,0/9
GFTFDAYAMH,GISWNSGSIGYADSVK,VGRGGGYSDY,no signal,0/3,2/9
LFTFDDYAMH,GISWNSGSIGYADSVK,FGRGGGYHDY,330 µM,2/3,4/9
GETFDDYAMH,GISWNSGSIGYAQSVK,VGRGGGYVDY,2.2 µM,1/3,0/9
GFTFDDYAMH,GISWNSGSIGPADSVK,VGRGGNYLDY,350 µM,3/3,4/9
GFTFDDYAMH,GISWNSDSIGYADSVK,VGKGGGYDDY,38 µM,1/3,0/9
GFTFDDYAMH,GISWNSGSIGYAESVK,VGRGGGYCDY,27 nM,3/3,4/9
SFTFDDYAMH,GISWNSGSIGYYDSVK,VGRGGGYRDY,no signal,0/3,0/9
GFAFDDYAMH,GISWNSGSIGYADSVK,VGRCGGYSDY,58 µM,2/3,5/9
GFTFDDYAMG,GISWNSGSIGYADSPK,VGRGGGYQDY,no signal,0/3,1/9
GRTFDDYAMH,GISWNSGSIGYADSVK,VGRGGGYSDI,no signal,0/3,0/9
GFTTDDYAMH,GISWNSGSIGYADSVK,VGRGGGYNDY,4.3 µM,1/3,2/9
GITFDDYAMH,GISWNSGSIGYADSVK,VGRGGGYADY,11 µM,1/3,3/9
GFTFDDYAMH,GISWNSGSIGYADSIK,VGRGGEYIDY,no signal,0/3,0/9
MFTFDDYAMH,GISWNSGSIGYADRVK,VGRGGGYQDY,35 µM,2/3,5/9
GFTFDDIAMH,GISWNSGSIGYADSVK,VGRMGGYDDY,no signal,0/3,0/9
GFTFGDYAMH,TISWNSGSIGYADSVK,VGRGGGYDDY,no signal,0/3,0/9
GFPFDDYAMH,GISWNSGSIGYADSVK,VGSGGGYPDY,9.9 µM,1/3,5/9
GFTFDDYAMH,GISWNVGSIGYADSVK,VGRGKGYGDY,52 µM,2/3,1/9
GFTFDDYAMH,GISWNSGPIGYADSVK,VGRGGGYQDY,no signal,0/3,1/9
GFTFDDFAMH,GISWNSGSIGYADSVM,VGRGGGYMDY,29 µM,2/3,5/9
GFTFDDYATH,GIPWNSGSIGYADSVK,VGRGGGYVDY,93 µM,2/3,0/9
GFTFDDYAMH,DISWNSGEIGYADSVK,VGRGGGYNDY,8.1 µM,1/3,0/9
GFTFDDYAMH,GISWNSGSIGYADSGK,VGRGGGVYDY,34 µM,1/3,0/9
GFTFDDYFMH,GISWNSGSIGYADSVK,PGRGGGYSDY,17 µM,1/3,2/9
GFTFDDYAMH,GISWNSGSIGYADSVK,VGRGAGYRDY,no signal,0/3,1/9
GFTFDDYAMH,GISWNSGYIGYADSVK,VGRGGRYHDY,170 nM,1/3,0/9
GFTFDDYAMH,WISWNSGSICYADSVK,VGRGGGYPDY,7.6 µM,1/3,3/9
GFTFDDYAMH,GIEWASGSIGYADSVK,VGRGGGYIDY,no signal,0/3,0/9
GFTFDDYAMH,GISWNSGSIGFADSVK,VGRGGGYPDG,18 µM,1/3,0/9
GFTFDDYAMH,GIVWNSGSIGYEDSVK,VGRGGGYQDY,no signal,0/3,0/9

Extract of 10 entries:

CDR-H1	CDR-H2	CDR-H3	Kd	replicates with signal	empty controls
GFTFDDYAMH	GISWNVGSIGYADSVK	VGRGKGYGDY	52 µM	2/3	1/9
GFTFDDFAMH	GISWNSGSIGYADSVM	VGRGGGYMDY	29 µM	2/3	5/9
GFTFDDYAMH	GISWGSGSLGYADSVK	VGRGGGYEDY	180 µM	3/3	9/9
GATFDDYAMH	GISWNSGSIGYADSVK	VGYGGGYYDY	no signal	0/3	0/9
GFTFDDYATH	GIPWNSGSIGYADSVK	VGRGGGYVDY	93 µM	2/3	0/9
GFTFDDYAMH	GISWNSGSIGYADGVK	VGRGGGNPDY	6.4 nM	3/3	2/9
GFTFDDYAMH	GISWNSGSIGYADSVK	VGRGGGYADE	15 µM	1/3	2/9
GFTFDDYAMH	WISWNSGSICYADSVK	VGRGGGYPDY	7.6 µM	1/3	3/9
GFTFDDYAMH	GISWNSGSCGYADSYK	VGRGGGYKDY	1.2 µM	3/3	3/9
GFTFDDYAMH	GISWNSGSIGYAESVK	VGRGGGYCDY	27 nM	3/3	4/9

Data: MIT Lincoln Laboratory AlphaSeq set, Engelhart et al. 2022, doi:10.1038/s41597-022-01779-4, as distributed in FLAb.